Reference: US20250304643A1, “PEPTIDE DUAL AGONISTS OF GIPR AND GLP2R” (BAINAN BIOTECH APS, priority 2021, published 2025)
Like-named read-outs stand apart in the source and are kept apart here.

By UniProt entry, the sequences of proteins in these tests, tags left out. Residues count along the entry.
UniProt P43220, 24-463: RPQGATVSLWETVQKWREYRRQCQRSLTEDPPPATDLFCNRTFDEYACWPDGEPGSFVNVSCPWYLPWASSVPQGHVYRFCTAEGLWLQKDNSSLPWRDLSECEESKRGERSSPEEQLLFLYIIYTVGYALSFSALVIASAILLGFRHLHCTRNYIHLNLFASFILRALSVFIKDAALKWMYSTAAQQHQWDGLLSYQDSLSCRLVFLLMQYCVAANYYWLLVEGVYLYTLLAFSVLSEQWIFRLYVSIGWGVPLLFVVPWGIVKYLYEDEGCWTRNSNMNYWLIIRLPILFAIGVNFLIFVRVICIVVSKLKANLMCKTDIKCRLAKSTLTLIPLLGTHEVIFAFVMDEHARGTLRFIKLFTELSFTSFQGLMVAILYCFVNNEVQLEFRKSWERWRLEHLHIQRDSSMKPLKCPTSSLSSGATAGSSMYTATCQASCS

What was measured:
Format in all cases: cell-based
human GLP-2R = biological target: T1, human GLP-2R (Homo sapiens, UniProt O95838); experiment: HitHunter cAMP assay in transiently transfected COS-7 cells, human GLP-2R;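 note: cells kept 30 min at 37 °C in buffer with 1 mM IBMX, then given ligand for another 30 min at 37 °C before cAMP readout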
T1 construct: host or cells: COS-7
T1 sequence (O95838 1-553): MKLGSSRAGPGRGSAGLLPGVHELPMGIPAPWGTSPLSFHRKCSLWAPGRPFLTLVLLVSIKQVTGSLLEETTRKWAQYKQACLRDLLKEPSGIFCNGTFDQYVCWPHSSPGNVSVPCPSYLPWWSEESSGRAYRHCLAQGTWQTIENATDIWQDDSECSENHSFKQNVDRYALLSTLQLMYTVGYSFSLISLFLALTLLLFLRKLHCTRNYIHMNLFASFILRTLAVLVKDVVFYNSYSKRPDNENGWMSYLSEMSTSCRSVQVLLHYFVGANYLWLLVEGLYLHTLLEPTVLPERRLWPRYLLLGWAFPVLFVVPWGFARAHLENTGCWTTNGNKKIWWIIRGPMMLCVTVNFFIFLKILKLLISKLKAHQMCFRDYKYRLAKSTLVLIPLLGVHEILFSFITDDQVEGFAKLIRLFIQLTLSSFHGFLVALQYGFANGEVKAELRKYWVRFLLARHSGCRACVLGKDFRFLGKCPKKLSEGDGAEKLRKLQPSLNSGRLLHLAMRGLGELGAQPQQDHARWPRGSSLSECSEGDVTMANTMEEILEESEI

human GLP-1R = biological target: T2, human GLP-1R (Homo sapiens, UniProt P43220); experiment: HitHunter cAMP assay in transiently transfected COS-7 cells, human GLP-1R
T2 construct: host or cells: COS-7
Experimental: (§1) The next day the assay was initiated by washing with HEPES buffered saline (HBS) and followed by an incubation step with assay buffer (HBS added 1 mM isobutyl-1-methylxanthine (IBMX)) for 30 min at 37° C. The ligands were then added and incubated for an additional 30 min at 37° C. After ligand incubation, the HitHunter® CAMP assay (Eurofins DiscoverX, Fremont, […] USA) was carried out according to the manufacturer's instructions. Luminescence was measured by PerkinElmer™ EnVision 2014 Multilabel Reader (PerkinElmer, Waltham, MA). The potencies (EC50 values) were determined by nonlinear regression using GraphPad Prism 9 (San Diego, California, USA). Sigmoid curves were fitted logistically. The efficacies (Emax values) were determined by normalization to the highest concentration applied of the endogenous ligand for each receptor.

human GIPR = biological target: T3, human GIPR (Homo sapiens, UniProt P48546); design: host or cells: COS-7
T3 sequence (P48546 22-466): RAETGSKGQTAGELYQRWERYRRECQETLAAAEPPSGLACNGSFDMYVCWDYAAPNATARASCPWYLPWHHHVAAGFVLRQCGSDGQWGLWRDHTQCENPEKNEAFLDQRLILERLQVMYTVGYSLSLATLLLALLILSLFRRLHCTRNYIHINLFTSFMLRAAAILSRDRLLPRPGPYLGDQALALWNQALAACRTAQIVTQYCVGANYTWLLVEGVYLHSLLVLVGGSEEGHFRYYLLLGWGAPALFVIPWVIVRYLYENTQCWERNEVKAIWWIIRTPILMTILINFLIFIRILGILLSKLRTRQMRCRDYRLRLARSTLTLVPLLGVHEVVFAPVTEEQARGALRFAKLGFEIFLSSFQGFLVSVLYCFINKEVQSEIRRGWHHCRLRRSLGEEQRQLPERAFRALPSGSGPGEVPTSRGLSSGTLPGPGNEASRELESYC
Experimental: as §1

[1] = cAMP, COS-7 cells expressing human GLP-2R, Table 2
[2] = cAMP, COS-7 cells expressing human GLP-1R, Table 3
[3] = cAMP, COS-7 cells expressing human GIPR, Table 2
[4] = comparative peptides, human GLP-2R, Table B
[5] = comparative peptides, human GLP-1R, Table C
[6] = comparative peptides, human GIPR, Table 4A

Row | Substance | EC50 (human GLP-2R; [1]) | logEC50 GLP-2R (human GLP-2R; [1]) | EC50 (human GLP-1R; [2]) | logEC50 GLP-1R (human GLP-1R; [2]) | EC50 (human GIPR; [3]) | PEC50 GIPR (human GIPR; [3]) | EC50 (human GLP-2R; [4]) | logEC50 GLP-2R (human GLP-2R; [4]) | EC50 (human GLP-1R; [5]) | logEC50 GLP-1R (human GLP-1R; [5]) | EC50 (human GIPR; [6]) | pEC50 GIPR (human GIPR; [6])
1 | (C16)H-Aib-DGTFISDYSTILDNLAARDFIEWLIQTKIT-OH [Compound no. 8] | 5 nM | 8.3 | 10 nM | 8.0 | 1.58 nM | 8.8 | – | – | – | – | – | –
2 | (C16)HADGTFISDYSTILDELAARDFINWLIQTKITKNDWKHNITQ [Compound no. 48] | 25.1 nM | 7.6 | – | no activation | 2.82 nM | 8.6 | – | – | – | – | – | –
3 | (C16-diacid)H-Aib-DGTFISDYST-Aib-LDKLAARDFINWLIETKITK-OH [Compound no. 23] | 1.8 nM | 8.8 | – | no activation | 1.78 nM | 8.8 | – | – | – | – | – | –
4 | H-Aib-DGTFISDY-K(γGlu-C16)-TILDNLAARDFINWLIETKITK-OH [Compound no. 32] | 10 nM | 8.0 | – | no activation | 0.341 nM | 9.5 | – | – | – | – | – | –
5 | H-Aib-DG-K(γGlu- γGlu-C10)-FISDYSTILDNLAARDFINWLIQTKITK-OH [Compound no. 26] | 6.3 nM | 8.2 | – | no activation | 3.16 nM | 8.5 | – | – | – | – | – | –
6 | (C16)H-Aib-DGTFISDYSTILD-Aib-LAARDFINWLIQTKITK-OH [Compound no. 6] | 3.2 nM | 8.5 | 39.8 nM | 7.4 | 0.794 nM | 9.1 | – | – | – | – | – | –
7 | (C16)HADGTFISDYSTILDNLAARDFIEWLIQTKITKNDWKHNITQ [Compound no. 50] | 10 nM | 8.0 | – | no activation | 0.891 nM | 9.1 | – | – | – | – | – | –
8 | (C10)HADGTFISDYSTILDNLAAKDFINWLIQTKITKNDWKHNITQ [Compound no. 3] | 5 nM | 8.3 | – | no activation | 0.584 nM | 9.2 | – | – | – | – | – | –
9 | (C16)HADGTFISDYSTILDNLAARDFINWLIQTKITD [Compound no. 1] | 27.1 nM | 7.6 | – | no activation | 0.584 nM | 9.2 | – | – | – | – | – | –
10 | H-Aib-DGTFISDY-K(γGlu-C16)-T-Aib-LDNLAARDFINWLIQTKITK-OH [Compound no. 29] | 2.3 nM | 8.6 | – | no activation | 0.926 nM | 9.0 | – | – | – | – | – | –
11 | H-Aib-EG-K(γGlu-C16)-FISDYST-Aib-LDNLAARDFINWLIQTKITK-OH [Compound no. 27] | 7.9 nM | 8.1 | – | no activation | 1.78 nM | 8.8 | – | – | – | – | – | –
12 | (C16-diacid)H-Aib-DGTFISDYST-Aib-LDKLAARDFIEWLIQTKITK-OH [Compound no. 22] | 2.5 nM | 8.6 | – | no activation | 1.1 nM | 9.0 | – | – | – | – | – | –
13 | (C16)HADGTFISDYSTILDNLAARDFINWLLAQKITK [Compound no. 46] | 23.3 nM | 7.6 | – | no activation | 1.58 nM | 8.8 | – | – | – | – | – | –
14 | Ac-H-Aib-DGTFISDY-K(γGlu-C16)-T-Aib-LDNLAARDFINWLIQTKITKNDWKHNITQ-OH [Compound no. 38] | 3.5 nM | 8.5 | – | no activation | 3.55 nM | 8.5 | – | – | – | – | – | –
15 | Ac-H-Aib-DGTFISDY-K(γGlu-C16)-T-Aib-LDNLAARDFINWLIQTKITK-OH [Compound no. 34] | 14.1 nM | 7.9 | – | no activation | 10 nM | 8.0 | – | – | – | – | – | –
16 | (C16)H-Aib-DGTFISDYSTILDNLAARDFIEWLIQTKITK-OH [Compound no. 7] | 4 nM | 8.4 | 39.8 nM | 7.4 | 0.891 nM | 9.1 | – | – | – | – | – | –
17 | (C16-diacid)HADGTFISDYSTAibLDNLAARDFINWLIQTKITKNDWKHNITQ [Compound no. 39] | 1 nM | 9.0 | – | no activation | 1.78 nM | 8.8 | – | – | – | – | – | –
18 | HADGTFISDYSTILDK(γGlu-C18-diacid) LAARDFINWLIQTKGKK [Compound no. 64, reference compound] | – | – | – | – | – | – | 1.5 nM | 8.8 | 0.54 nM | 9.3 | 0.074 nM | 10.1
19 | (C16)HADGTFISDYSTILDNLAARDFINWLIETKITKNDWKHNITQ [Compound no. 51] | 12.6 nM | 7.9 | – | no activation | 0.398 nM | 9.4 | – | – | – | – | – | –
20 | H-Aib-DGTF-K(γGlu-C16)-SDYSTILDNLAARDFINWLIQTKITK-OH [Compound no. 10] | 31.6 nM | 7.5 | 100 nM | 7.0 | 1.26 nM | 8.9 | – | – | – | – | – | –
21 | (C16)HADGTFISDYSTILELLAARDFINWLIQTKITKNDWKHNITQ [Compound no. 15] | 50.1 nM | 7.3 | – | no activation | 2.93 nM | 8.5 | – | – | – | – | – | –
22 | (C16)HADGTFISDYSTILDNLAARDFINWLIQTKITKAEWKHAITQ [Compound no. 49] | 35.5 nM | 7.5 | – | no activation | 2.82 nM | 8.6 | – | – | – | – | – | –
